In PMC2614347, “A Novel Peptide Enhances Therapeutic Efficacy of Liposomal Anti-Cancer Drugs in Mice Models of Human Lung Cancer” (PLoS ONE, 2009):

Test: Pharmacokinetic and biodistribution study of doxorubicin formulations
Type: in vivo, SCID mice
Conditions: 2 mg/kg i.v.; total tumor doxorubicin; spectrofluorometry; n = 3 per time point
Method: SCID mice bearing NSCLC xenografts (∼500 mm^3), were injected in the tail vein with various formulations of liposomal doxorubicin (SP5-2-LD, MP5-2-LD, and LD) and free doxorubicin at a dose of 2 mg/kg. At selected time points, three mice in each group were anaesthetized and sacrificed. Blood samples were collected through submaxillary punctures, and plasma samples were prepared. After perfusion, xenograft tumors and mouse organs were removed and homogenized. […] Total doxorubicin concentration was measured using a method described by Mayer et al.. […] Tissue concentrations of doxorubicin were expressed as microequivalents per milliliter of plasma or per gram of tissue. A standard doxorubicin curve was prepared in control homogenates following the same extraction procedure as above. Drug levels were estimated on the basis of doxorubicin fluorescent equivalents.

AUC0-48 h, Total: 10.44 μg h/g tumor
Compound: COc1cccc2c1C(=O)c1c(O)c3c(c(O)c1C2=O)C[C@@](O)(C(=O)CO)C[C@@H]3O[C@H]1C[C@H](N)[C@H](O)[C@H](C)O1 [FD, doxorubicin]
